Results reported in patent publication US20230312709A1.

Experiments:
human RBC (human) [1] = molecular target: human RBC (human) (UniProt Q08722); test: flow cytometry on human red blood cells, PE goat anti-human IgG Fc secondary, MFI [upper right panel]
[2] = molecular target: human CD47 on CCRF-CEM cells (human) (UniProt Q08722); test: flow cytometry on CCRF-CEM cells, MFI curve
human RBC (human) [3] = molecular target: human RBC (human) (UniProt Q08722); test: flow cytometry on human red blood cells, PE goat anti-human IgG Fc secondary, MFI [upper left panel]
[4] = molecular target: human CD47 on CCRF-CEM cells (human) (UniProt Q08722); test: flow cytometry competition on CCRF-CEM cells; blocked ligand hSIRPα-mFC, detected with PE goat anti-mouse IgG Fc
human RBC (human) [5] = molecular target: human RBC (human) (UniProt Q08722); test: flow cytometry on human red blood cells, PE goat anti-human IgG Fc secondary, MFI [lower left panel]
human RBC (human) [6] = molecular target: human RBC (human) (UniProt Q08722); test: flow cytometry on human red blood cells, PE goat anti-human IgG Fc secondary, MFI [lower right panel]

EC50 (read off the curve) (human RBC (human) [1]): 0.09 µg/mL
EC50 [2]: 0.729 nM
EC50 (read off the curve) (human RBC (human) [3]): 0.07 µg/mL
IC50 (read off the curve) [4]: 0.5 nM
EC50 (read off the curve) (human RBC (human) [5]): 0.09 µg/mL
EC50 (read off the curve) (human RBC (human) [6]): 0.09 µg/mL
Substance: Hu5F9-G4 (antibody)
